Consider 1 molecule from patent USRE33375E, “Treatments employing drug-containing matrices for introduction into cellular lesion areas” (Matrix Pharmaceuticals, Inc., priority 1988, dated 1990).

SMILES strings stand for the structures. Structures can show the parent of a compound that is named as a salt. Marks after values point to notes of the source that are not given here.

For data set [1], the system named is white blood cells. Put plainly: White blood cell count in tumor-bearing mice. As to conditions: ADM 15 mg/kg, i.p.; Day 4 post injection. The protocol:
In the next study 5-fluorouracil (5-FU) (Sigma Chem. Co., St. Louis, Mo.) with and without epinephrine (Sigma) suspended in saline by sonication (60 mg/ml) and mixed 1:1 with bovine collagen (BC) (Collagen Corp., Palo Alto, Calif.) (36 mg/ml) or normal saline. The subjects were 25 gm 12 week-old female C3H/He mice (Bantin and Kingman, Fremont, Calif.) bearing the transplatable experimental murine fibrosarcoma propagated intradermally as previously described.
On day four post-treatment, white blood cells (wbc) were counted by sampling blood from the tail, dilution in Turk's solution and counting in a hemocytometer. On day eight post-treatment, skin reaction is overlying tissue was graded for untoward response. […]
^4 White Blood Cells measured on Day 4 post injection by sampling fro […]
In the next study a combination of bleomycin sulfate (Sigma Chemical Co., St. Louis, Mo.) (15 mg/kg) and epinephrine (5 mg/kg) employed in a bovine collagen composition were evaluated for antitumor effect in the transplantable experimental murine fibrosarcoma model previously described.
In another experiment the curative potential of drug matrix formulations was evaluated in the experimental murine fibrosarcoma model. […] WBC's were determined on Day 4 following each treatment cycle and skin reaction on […] after each treatment cycle. […]

Data set [2] has as its system uninjected contralateral fibrosarcoma (RIF-1 cells). As to the kind of experiment: Regrowth delay of the uninjected contralateral fibrosarcoma. The format is in vivo, murine; female C3H mice. The following applies: ADM 15 mg/kg, i.p.; time to 3× original treatment volume (~150 mm^3). The protocol:
A transplantable experimental murine fibrosarcoma (2×10^5 RIF-1 cells) was grown intradermally in the flank of 5 month old female C3H mice (Bantin and Kingman, Fremont, Calif.). Cis-diamine dichloroplatinum (II) (cis-Pt) (Sigma Chemical Co., St. Louis, Mo.) was dissolved in sterile saline at concentrations of 0.8, 1.6 and 3.2 mg/ml and mixed 1:1 with bovine collagen (BC) (36 mg/ml) in PBS 20 mM phosphate, 140 mM NaCl (Collagen Corp., Palo Alto, Calif.). Doses of 2, 4 and 8 mg/kg host of cis-Pt were delivered in 0.1 ml of the collagenous drug mixture to the center of the tumor growing in the flank (intratumorally, i.t.), and the tumor measured. The growth of a second uninjected tumor on the opposing flank of the same mouse was also measured. […] The growth of the tumors was monitored three times per week by caliper measurements of three perpendicular diameters of the tumor and calculating tumor volume from the formula
*Regrowth Delay determined as the time (days) for tumors to grow to four […]
In the next study a combination of bleomycin sulfate (Sigma Chemical Co., St. Louis, Mo.) (15 mg/kg) and epinephrine (5 mg/kg) employed in a bovine collagen composition were evaluated for antitumor effect in the transplantable experimental murine fibrosarcoma model previously described. […]

Data set [3] has as its system experimental murine fibrosarcoma (RIF-1 cells). As to the kind of experiment: Regrowth delay of the treated transplantable murine fibrosarcoma. The format is in vivo, murine; female C3H mice. As to conditions: ADM 15 mg/kg, i.p.; time to 3× original treatment volume (~150 mm^3).

On to `COc1cccc2c1C(=O)c1c(O)c3c(c(O)c1C2=O)C[C@@](O)(C(=O)CO)C[C@@H]3O[C@H]1C[C@H](N)[C@H](O)[C@H](C)O1` [Free ADM, doxorubicin-HCl], for which, in data set [1], the “White Blood Cells/mm^3” value is reported as 3.4 Cells/mm^3 (× 10^3). Besides, the “Tumor Regrowth Delay, Contralateral” value in data set [2] came out at 10.6 ± 1.6 days. Moreover, in data set [3], the “Tumor Regrowth Delay, Treated” value is listed as 10.6 ± 1.6 days.
